{
  "sequences": {"note": "Protein sequences, listed by entry. Tags and fused reporters are not part of them.", "UniProt P14416, whole entry": "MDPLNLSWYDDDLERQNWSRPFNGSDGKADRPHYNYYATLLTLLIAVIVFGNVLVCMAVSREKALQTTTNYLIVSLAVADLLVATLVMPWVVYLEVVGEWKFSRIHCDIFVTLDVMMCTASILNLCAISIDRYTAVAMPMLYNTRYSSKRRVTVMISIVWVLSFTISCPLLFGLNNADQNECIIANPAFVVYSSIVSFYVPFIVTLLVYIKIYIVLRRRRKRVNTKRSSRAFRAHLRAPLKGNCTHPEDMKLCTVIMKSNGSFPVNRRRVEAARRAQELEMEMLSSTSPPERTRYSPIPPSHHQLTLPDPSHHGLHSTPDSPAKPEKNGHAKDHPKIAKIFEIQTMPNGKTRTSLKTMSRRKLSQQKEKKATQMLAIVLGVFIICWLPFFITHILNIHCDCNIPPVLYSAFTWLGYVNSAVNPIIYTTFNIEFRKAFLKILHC"},
  "source": "PubChem BioAssay AID624464",
  "about": "(National Center for Advancing Translational Sciences (NCATS), 2012)",
  "note": "The entries are a selection whose mix differs from that of the whole data set. Some of these compounds have results that are not shown, active ones among them. Calls of active or inactive are those of the source. No stated cut-off is given here; in the data, active means potentiation above about 50%; inconclusive means mostly about 30% to 49%; inactive means weaker than that.",
  "data": [
    {"molecular_target": "D(2) dopamine receptor (Homo sapiens) (UniProt P14416)", "assay": "Beta-Arrestin HTS for Positive Allosteric Modulators of the Human D2 Dopamine Receptor: Potentiators", "details": "DiscoveRx D2 beta-arrestin cells, luminescence, 90 min; stronger effect = higher value; 100% = 57 uM dopamine signal", "excerpt": "There is great interest in identifying small molecule ligands for G-protein coupled receptors (GPCRs) as nearly 50% of all FDA-approved drugs target these important receptor proteins. […] Amongst the dopamine receptors (DARs), the D2 is arguably one of the most validated drug targets in neurology and psychiatry. For instance, all receptor-based antiparkinsonian drugs primarily work via stimulating the D2 DAR, whereas all FDA-approved antipsychotic agents are antagonists of this receptor. The D2 DAR is also therapeutically targeted in other disorders such as restless legs syndrome, tardive dyskinesia, Tourette's syndrome, and hyperprolactinemia.\nTo this end, a miniaturized qHTS screen was developed to be screened against the Molecular Libraries Small Molecule Repository (MLSMR). This assay seeks to identify potentiators against the D2 DAR.\nNIH Molecular Libraries Probe Production Network [MLPCN]\nNIH Chemical Genomics Center [NCGC]\nPI Name: David Sibley, National Institutes of Neurological Disorders and Stroke\nDiscoveRx D2 cells were thawed from frozen stock and seeded at 2,100 cells/ 3 uL/well media (DiscoveRx Plating Reagent 2) with MultiDrop Combi dispenser (Thermo Scientific, Logan, UT) onto white tissue culture treated 1536-well Aurora plates (Brooks Automation, Chelmsford, MA) and allowed to attach overnight at 37 deg C, 5% CO2. Next, 23 nL/well of compound solutions in DMSO were added with a pintool transfer (Kalypsis, San Diego, CA). As the positive control, 1 uL/well dopamine (EC100, 57 uM final concentration) diluted in buffer (HBSS + 10 mM HEPES + SMB + 0.1 %Tween-20) was dispensed to 1 column of each plate. EC20 (Dopamine at 50 nM final concentration) was dispensed to the rest of the plate except columns 1 &2 which were used as negative control (EC=0, buffer only), 1 uL/well as well. The cells were stimulated by compounds and dopamine for 90 minutes at 37 deg C, 5% CO2, after which 1.5 uL/well of DiscoveRx detection reagent was added with BioRAPTR FRD dispenser. The detection reagent was prepared by mixing of Galacton Star Substrate, Emerald II solution and PathHunter buffer (supplied by the assay kit) together at 1:5:19 proportion accordingly just prior to dispensing. The plates were incubated at ambient temperature for 1 hour and then the luminescent signal was read on ViewLux plate reader (PerkinElmer, Waltham, MA).", "values": [
      {"smiles": "O=C(NCC1(N2CCCCC2)CCCCC1)c1cccc(Cl)c1", "potentiation": "inactive: -5.6%"},
      {"smiles": "COc1cccc(C(=O)NCC2(N3CCCCC3)CCCCC2)c1", "potentiation": "inactive: -5.75%"},
      {"smiles": "COc1ccc(Cl)cc1C(=O)NCC1(N(C)C)CCCCC1", "potentiation": "inactive: -15.5%"},
      {"smiles": "COc1cc(C(=O)NCC2(N(C)C)CCCCC2)c([N+](=O)[O-])cc1OC", "potentiation": "inactive: -15.3%"},
      {"smiles": "CN(C)C1(CNC(=O)c2ccc(Br)cc2)CCCCC1", "potentiation": "inactive: -25.6%"},
      {"smiles": "CN(C)c1cccc(C(=O)NCC2(N(C)C)CCCCC2)c1", "potentiation": "inactive: -12.4%"},
      {"smiles": "CC(C)Oc1ccc(C(=O)NCC2(N(C)C)CCCCC2)cc1", "potentiation": "inactive: -9.31%"},
      {"smiles": "O=C(OCCN1CCCC1)C(O)(c1ccccc1)c1ccccc1", "potentiation": "inactive: -8.09%"},
      {"smiles": "COc1ccc(Br)c(C(=O)NCC2(N3CCCCC3)CCCCC2)c1", "potentiation": "inactive: -10.3%"},
      {"smiles": "C=C(C)C#CC(O)(C(=O)OC1CCN(C)CC1)c1ccccc1", "note": "(stereo unspecified)", "potentiation": "inactive: -15.7%"},
      {"smiles": "O=C(OC1CN2CCC1CC2)C(CO)(c1ccccc1)c1ccccc1", "note": "(stereo unspecified)", "potentiation": "inactive: -12.4%"},
      {"smiles": "Cc1ccc(C(=O)NCC2(N3CCCCC3)CCCCC2)cc1", "potentiation": "inactive: -11.4%"},
      {"smiles": "CC(C)N1C(=O)CC2(CCN(CCOC(=O)C(O)(c3ccccc3)c3ccccc3)CC2)C1=O", "potentiation": "inactive: -1.82%"},
      {"smiles": "CCN(CC)CC(C)C(C)OC(=O)C(O)(c1ccccc1)c1ccccc1", "note": "(stereo unspecified)", "potentiation": "inactive: -4.85%"},
      {"smiles": "COc1cc(SC)ccc1C(=O)NCC1(N(C)C)CCCCC1", "potentiation": "inactive: -7.83%"},
      {"smiles": "CN1[C@@H]2CC[C@H]1CC(OC(=O)C(O)(c1ccccc1)c1ccccc1)C2", "note": "(stereo partly specified)", "potentiation": "inactive: -10%"},
      {"smiles": "O=C(NCC1(N2CCCCC2)CCCCC1)c1cc([N+](=O)[O-])ccc1Cl", "potentiation": "inactive: -0.515%"},
      {"smiles": "CCN1CCCC(OC(=O)C2(O)c3ccccc3C=Cc3ccccc32)C1", "note": "(stereo unspecified)", "potentiation": "inactive: -25.6%"},
      {"smiles": "Cc1cc(C(=O)NCC2(N3CCCCC3)CCCCC2)ccc1[N+](=O)[O-]", "potentiation": "inactive: 0.12%"},
      {"smiles": "O=C(NCC1(N2CCCCC2)CCCCC1)c1cccc(Br)c1", "potentiation": "inactive: -8.71%"},
      {"smiles": "COc1ccc(C(=O)NCC2(N(C)C)CCCCC2)cc1", "potentiation": "inactive: -8%"},
      {"smiles": "C=CCN1CCN(CCOC(=O)C(O)(c2ccccc2)c2ccccc2)CC1", "potentiation": "inactive: 26.7%"},
      {"smiles": "O=C(NCC1(N2CCCCC2)CCCCC1)c1cc(F)c(F)cc1Cl", "potentiation": "inactive: -2.85%"},
      {"smiles": "Cc1ccccc1C(=O)NCC1(N2CCCCC2)CCCCC1", "potentiation": "inactive: -1.72%"},
      {"smiles": "CN(C)c1ccc(C(=O)NCC2(N(C)C)CCCCC2)cc1", "potentiation": "inactive: -11.3%"},
      {"smiles": "CN(C)C1CCCC1OC(=O)C(O)(c1ccccc1)c1ccccc1", "note": "(stereo unspecified)", "potentiation": "inactive: -36%"}
    ]}
  ]
}
